{"source": "patent US20250262315A1", "about": "(priority 2021, published 2025)", "key": {"[1]": {"system": "KPL-4 inflammatory breast tumor", "assay": "KPL-4 orthotopic xenograft mouse model of human breast cancer", "format": "in vivo", "conditions": "NSG mice"}, "[2]": {"assay": "Tolerability study with blood chemistry and hematology analysis"}, "[3]": {"conditions": "CD-1 mice, 80 mg kg^−1, serum 5 days post injection"}}, "data": [{"substance": "KADCYLA®: FDA-approved anti-HER2 ADC", "values": [{"measurement": "median survival time", "setting": "[1]; single i.v. dose 1 mg kg^−1", "result": 35, "unit": "days"}, {"measurement": "percent tumor growth inhibition (% TGI) on Day 31", "setting": "[1]; single i.v. dose 1 mg kg^−1, n=5", "result": 47, "unit": "%"}, {"measurement": "ALKP level", "setting": "[2]; [3]", "result": "appeared to be elevated"}, {"measurement": "level of BUN", "setting": "[2]; [3]", "result": "decreased"}, {"measurement": "levels of AST and ALT", "setting": "[2]; [3]", "result": "significantly elevated"}, {"measurement": "red blood cell, platelet, and neutrophil counts vs untreated cohort", "setting": "[2]; CD-1 mice, 80 mg kg^−1, whole blood Day 5", "result": "appeared to decrease platelets and increase neutrophils"}, {"measurement": "body weight loss (>20%) or other severe clinical symptom", "setting": "[2]; healthy female CD-1 IGS mice, single dose 80 mg kg^−1, 5 days post-injection", "result": "No significant body weight loss"}]}]}
